This assay addresses PAR1 (Homo sapiens (Human), UniProt P25116). The assay can be described thus: Par-1 FLIPR assay (calcium, HEK 293 cells, PAR1 activating peptide). Type of assay: cell-based. The note with it: read-out: Par-1 FLIPR IC50, PAR1 selective receptor-activating peptide at 80% activation.

The chains behind the UniProt entries cited, without tags or fusion partners. Residues count along the entry.
UniProt P25116, 22-425 limits assumed: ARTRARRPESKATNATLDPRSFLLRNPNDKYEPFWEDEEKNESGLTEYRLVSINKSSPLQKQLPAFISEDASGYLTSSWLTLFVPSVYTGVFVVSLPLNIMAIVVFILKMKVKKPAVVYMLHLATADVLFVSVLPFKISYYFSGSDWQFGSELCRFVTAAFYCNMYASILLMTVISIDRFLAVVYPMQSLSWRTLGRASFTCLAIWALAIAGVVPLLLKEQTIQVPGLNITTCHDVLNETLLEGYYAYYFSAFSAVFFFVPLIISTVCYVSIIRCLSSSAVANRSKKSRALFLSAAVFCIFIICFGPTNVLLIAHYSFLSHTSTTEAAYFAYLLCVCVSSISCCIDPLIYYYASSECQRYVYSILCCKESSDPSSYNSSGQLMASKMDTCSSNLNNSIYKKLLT

Data on three molecules can be found in patent publication US9340530B2, “Preparation and use of bicyclic himbacine derivatives as PAR-1 receptor antagonists” (Merck, Sharp & Dohme Corp., priority 2012, dated 2016).

A word on the IC50: it is the concentration that gives 50% inhibition.

Each structure is given as a SMILES string.

As for `C[C@H]1OC(=O)[C@]2(n3cc(-c4ccc(N(C)C)cc4)nn3)CC(F)(F)[C@@H](C)[C@H](/C=C/c3ccc(-c4ccccc4C#N)cn3)[C@H]12`, the IC50 was determined as 9.7 nM. The value for `C[C@H]1OC(=O)[C@]2(n3ccnn3)CC(F)(F)[C@@H](C)[C@H](/C=C/c3ccc(-c4ccccc4C#N)cn3)[C@H]12` was 3.1 nM; that for `C[C@H]1OC(=O)[C@]2(n3ccnc3)CC(F)(F)[C@@H](C)[C@H](/C=C/c3ccc(-c4ccccc4C#N)cn3)[C@H]12` was 4.3 nM.
